From patent US10894786B2, “Substituted pyrazole derivatives as selective CDK12/13 inhibitors” (Aurigene Discovery Technologies Limited, priority 2018, dated 2021) come the findings set out here.

Sequences of proteins named here, by UniProt entry; tags and fusion partners are left off.
UniProt Q9NYV4, whole entry, looked up, species assumed: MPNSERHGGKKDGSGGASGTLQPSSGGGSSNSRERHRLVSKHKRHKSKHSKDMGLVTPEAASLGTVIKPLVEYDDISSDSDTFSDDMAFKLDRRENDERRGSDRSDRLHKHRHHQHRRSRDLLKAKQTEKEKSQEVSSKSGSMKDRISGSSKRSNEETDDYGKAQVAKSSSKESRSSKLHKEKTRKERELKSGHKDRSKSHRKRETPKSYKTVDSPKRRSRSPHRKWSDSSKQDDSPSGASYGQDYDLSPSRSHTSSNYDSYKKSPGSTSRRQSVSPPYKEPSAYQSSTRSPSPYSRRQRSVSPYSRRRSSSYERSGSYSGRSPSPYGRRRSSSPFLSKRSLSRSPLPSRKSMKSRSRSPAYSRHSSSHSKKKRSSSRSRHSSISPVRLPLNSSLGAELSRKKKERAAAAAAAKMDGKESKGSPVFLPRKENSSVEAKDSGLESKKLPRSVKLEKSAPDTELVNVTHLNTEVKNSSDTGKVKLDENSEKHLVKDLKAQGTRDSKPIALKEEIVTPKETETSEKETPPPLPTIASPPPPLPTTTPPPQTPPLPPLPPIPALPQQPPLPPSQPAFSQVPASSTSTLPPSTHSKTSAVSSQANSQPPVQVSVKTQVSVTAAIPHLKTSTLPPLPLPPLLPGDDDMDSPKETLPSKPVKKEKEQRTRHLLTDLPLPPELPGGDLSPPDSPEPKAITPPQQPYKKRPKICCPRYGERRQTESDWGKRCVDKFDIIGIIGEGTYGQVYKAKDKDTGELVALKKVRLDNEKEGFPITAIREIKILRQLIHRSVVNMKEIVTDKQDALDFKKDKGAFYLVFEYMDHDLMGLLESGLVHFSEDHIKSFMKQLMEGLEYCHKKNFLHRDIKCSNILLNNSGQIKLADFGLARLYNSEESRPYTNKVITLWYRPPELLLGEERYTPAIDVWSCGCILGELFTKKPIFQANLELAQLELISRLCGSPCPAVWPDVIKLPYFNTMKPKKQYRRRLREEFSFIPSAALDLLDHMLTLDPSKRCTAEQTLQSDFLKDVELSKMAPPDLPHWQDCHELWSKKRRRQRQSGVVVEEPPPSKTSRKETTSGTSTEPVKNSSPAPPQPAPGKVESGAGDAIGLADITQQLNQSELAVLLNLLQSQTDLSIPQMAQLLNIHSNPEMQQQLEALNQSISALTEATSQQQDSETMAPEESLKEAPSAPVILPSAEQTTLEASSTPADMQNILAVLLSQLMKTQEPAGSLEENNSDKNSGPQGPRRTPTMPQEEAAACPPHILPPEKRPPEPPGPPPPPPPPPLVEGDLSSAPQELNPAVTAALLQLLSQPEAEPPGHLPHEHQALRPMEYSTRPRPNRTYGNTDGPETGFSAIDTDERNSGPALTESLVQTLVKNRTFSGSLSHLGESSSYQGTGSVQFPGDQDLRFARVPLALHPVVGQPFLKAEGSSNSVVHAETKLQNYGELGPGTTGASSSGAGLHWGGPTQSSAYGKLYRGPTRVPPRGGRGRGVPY
UniProt P50613, whole entry, looked up, species assumed: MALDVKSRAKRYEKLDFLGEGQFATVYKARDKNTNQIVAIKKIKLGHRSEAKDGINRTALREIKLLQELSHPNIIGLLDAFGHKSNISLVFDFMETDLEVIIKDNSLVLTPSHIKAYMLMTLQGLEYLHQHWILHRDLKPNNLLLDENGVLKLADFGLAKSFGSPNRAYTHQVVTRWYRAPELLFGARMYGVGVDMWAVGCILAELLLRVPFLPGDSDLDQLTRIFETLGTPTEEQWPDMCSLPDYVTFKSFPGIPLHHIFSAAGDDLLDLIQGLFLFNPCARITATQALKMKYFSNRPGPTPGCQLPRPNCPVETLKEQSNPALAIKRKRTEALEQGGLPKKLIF

The IC50 is the concentration needed to halve the response being measured. Usually Kd stands for the constant that tells how readily two partners part at equilibrium. A high value points to a looser complex.

Test [1] deals with T1, CDK12 (Homo sapiens (Human), UniProt Q9NYV4). Description: Biochemical assay for CDK12 (IC50 determination), LANCE TR-FRET. To be noted: ATP 100 μM, 60 min pre-incubation. Here is the method:
The inhibitory activity of the test compounds was assessed by the LANCE TR-FRET assay, which detects the ATP-dependent phosphorylation of an ULight-4E-BP1 (Thr37/Thr46) substrate peptide (100 nM) by CDK12 (30 nM). Briefly, the enzyme reaction was run in reaction buffer (25 mM HEPES (pH 7.5), 10 mM MgCl2, 0.01% BSA, 0.01% Triton x, 1 mM DTT). The assay was performed in 384-well plate format. The end concentration of the ATP substrate was 100 μM, and that of the ULight-4E-BP1 (Thr37/Thr46) substrate peptide was 100 nM, and of CDK12 was 30 nM. Pre-incubation of the compound and enzyme was performed for 60 min at room temperature. After 60 min incubation at room temperature, the reaction was terminated by the addition of 40 mM EDTA and 0.5 nM Eu-labeled anti-phospho-eIF4E-binding protein (Thr37/46) antibody in LANCE detection buffer. Time-resolved fluorescence (excitation, 320 nm; emission donor, 615 nm; emission acceptor, 665 nm) was monitored by using 2030 multilabel reader Victor5 (PerkinElmer). The readout was calculated as (acceptor counts/donor counts)×1000. The IC50 values were derived by fitting a sigmoidal dose-response curve to a plot of assay readout over inhibitor concentration. All fits were computed with the program Prism 5.03 (Graph Pad Software, San Diego, Calif.).

In test [2] the target is T1, CDK12. Description: Biochemical assay for CDK12 (Kd determination), kinase-tagged phage/qPCR competition binding. Here is the method:
Kinase-tagged T7 phage strains were grown in parallel in 24-well blocks in an E. coli host derived from the BL21 strain. E. coli were grown to log-phase and infected with T7 phage from a frozen stock (multiplicity of infection=0.4) and incubated with shaking at 32° C. until lysis (90-150 minutes). The lysates were centrifuged (6,000×g) and filtered (0.2 μm) to remove cell debris. The remaining kinases were produced in HEK-293 cells and subsequently tagged with DNA for qPCR detection. […] The liganded beads were blocked with excess biotin and washed with blocking buffer (SeaBlock (Pierce), 1% BSA, 0.05% Tween 20, 1 mM DTT) to remove unbound ligand and to reduce non-specific phage binding. […] Test compounds were prepared as 40× stocks in 100% DMSO and directly diluted into the assay. All reactions were performed in polypropylene 384-well plates in a final volume of 0.02 ml. […] The kinase concentration in the eluates was measured by qPCR.
(Real-time PCR tracks product formation cycle by cycle.)

The target in test [3] is CDK7 (Homo sapiens (Human), UniProt P50613). The experiment in a line: Biochemical assay for CDK7, LANCE TR-FRET. To be noted: ATP 1 mM/100 μM, 60 min pre-incubation; read-out: CDK 7 IC50. The procedure: The inhibitory activity of the test compounds was assessed by the LANCE TR-FRET assay, which detects the ATP-dependent phosphorylation of an ULight-myelin basic protein (MBP) substrate peptide (100 nM) by CDK7 (10 nM). Briefly, the enzyme reaction was run in reaction buffer (20 mM HEPES (pH 7.5), 10 mM MgCl2, 0.01% Triton x, 100 μM Sodium Orthovanadate, 1 mM DTT). The assay was performed in 384-well plate. The end concentration of the ATP substrate was 1 mM/100 μM, and that of the ULight-MBP substrate peptide was 100 nM, and of CDK7 was 10 nM. Pre-incubation of the compound and enzyme was performed for 60 min at room temperature. After 60 min incubation at room temperature, the reaction was terminated by the addition of 40 mM EDTA and 1 nM Eu-labeled anti-phospho-MBP-binding protein antibody in the buffer. […] The readout was calculated as (acceptor counts/donor counts)×1000. The IC50 values were derived by fitting a sigmoidal dose-response curve to a plot of assay readout over inhibitor concentration.
In general terms: TR-FRET usually uses a lanthanide donor and a delayed reading to cut background.

For test [4], the target named is T1, CDK12. Description: CDK12 plate based target engagement assay in Jurkat cells. The test is classed as cell-based. The settings on record: 6 hours. The procedure:
Jurkat cells were treated with varying concentrations of the compound for 6 hours. The DMSO concentration was maintained at 0.1%. Cells were harvested and lysed. 200 μg of the lysate was incubated with 1 μM Bio-THZ531 in the presence of 1 mM DTT and incubated on a rocker at 4° C. overnight. 100 μL of this sample was added to pre-washed streptavidin coated plates and incubated at room temperature on a rocker for 2 hours. The plates were washed and incubated with CDK12 antibody for overnight at 4° C. Next day the plate was washed and incubated for 2 hours with HRP labelled anti rabbit secondary antibody. Bio-THZ531 bound CDK12 was determined using TMB substrate. The plates were read using the M3 spectrophotometer at […]. Percentage CDK12 occupancy with the test compound was calculated over untreated control. Occupancy 50 was calculated by fitting the dose response data to sigmoidal curve fitting equation using GraphPad Prism software V5.

Consider `C=CC(=O)N1CC=C(c2ccc([C@H](C)C(=O)Nc3cc(C4CC4)[nH]n3)cc2)CC1` [Compound 2, (S)-2-(4-(1-acryloyl-1,2,3,6-tetrahydropyridin-4-yl)phenyl)-N-(5-cyclopropyl-1H-pyrazol-3-yl)propanamide], for which the concentration for half-maximal inhibition (IC50) turned out to be 60 nM in test [1] and 2290 nM in test [3]. Besides, the Kd in test [2] lay in the range of 25 to 100 nM. Further, the “CDK12 Target Occupancy (Tocc50) μM in Jurkat cells” value in test [4] was found to be 0.014 µM.
